Laboratory results published in patent publication US12698289B2, “Solid forms of pharmaceutically acceptable salts of (S)-(2-ethyl-5-fluoro-4-hydroxyphenyl)-1H-indazol-3-yl)-4,6-dihydropyrrolo[3,4-d]imidazol-5(1H)-yl)(3-hydroxypyrrolidin-1-yl)methanone as JAK inhibitors” (HENAN MEDINNO PHARMACEUTICAL TECHNOLOGY CO., LTD., priority 2019, dated 2026).

The chains behind the UniProt entries cited, without tags or fusion partners.
UniProt P29597, whole entry: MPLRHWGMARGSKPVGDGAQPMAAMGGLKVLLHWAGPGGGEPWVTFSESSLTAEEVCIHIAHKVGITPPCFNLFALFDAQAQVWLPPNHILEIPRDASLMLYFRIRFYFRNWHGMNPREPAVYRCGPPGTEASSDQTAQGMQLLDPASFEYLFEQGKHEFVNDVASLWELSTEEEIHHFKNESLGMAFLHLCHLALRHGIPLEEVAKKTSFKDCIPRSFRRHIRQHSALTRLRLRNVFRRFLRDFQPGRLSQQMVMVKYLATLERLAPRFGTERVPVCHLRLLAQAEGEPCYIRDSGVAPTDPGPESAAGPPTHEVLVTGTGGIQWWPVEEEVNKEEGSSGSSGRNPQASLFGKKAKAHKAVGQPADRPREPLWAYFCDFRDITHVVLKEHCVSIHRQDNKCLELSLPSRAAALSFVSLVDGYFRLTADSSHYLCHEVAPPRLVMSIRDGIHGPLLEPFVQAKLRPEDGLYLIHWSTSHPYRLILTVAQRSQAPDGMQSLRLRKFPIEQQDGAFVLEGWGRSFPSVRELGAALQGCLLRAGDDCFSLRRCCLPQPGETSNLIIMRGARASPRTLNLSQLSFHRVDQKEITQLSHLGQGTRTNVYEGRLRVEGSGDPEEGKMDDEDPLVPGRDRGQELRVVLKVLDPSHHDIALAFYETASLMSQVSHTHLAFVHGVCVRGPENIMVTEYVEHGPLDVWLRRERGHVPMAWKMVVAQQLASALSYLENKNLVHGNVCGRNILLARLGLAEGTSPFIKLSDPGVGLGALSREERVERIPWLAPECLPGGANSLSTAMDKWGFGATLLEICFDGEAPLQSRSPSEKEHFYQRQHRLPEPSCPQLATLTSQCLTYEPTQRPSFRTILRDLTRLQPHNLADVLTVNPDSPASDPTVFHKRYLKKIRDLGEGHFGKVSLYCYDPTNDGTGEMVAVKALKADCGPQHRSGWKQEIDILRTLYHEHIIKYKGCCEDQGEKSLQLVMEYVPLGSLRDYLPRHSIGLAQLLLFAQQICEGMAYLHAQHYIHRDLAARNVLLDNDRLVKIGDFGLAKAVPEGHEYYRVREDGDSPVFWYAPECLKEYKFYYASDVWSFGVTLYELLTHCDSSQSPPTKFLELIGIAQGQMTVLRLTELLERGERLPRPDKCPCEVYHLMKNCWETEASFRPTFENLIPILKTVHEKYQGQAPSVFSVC
UniProt P23458, whole entry: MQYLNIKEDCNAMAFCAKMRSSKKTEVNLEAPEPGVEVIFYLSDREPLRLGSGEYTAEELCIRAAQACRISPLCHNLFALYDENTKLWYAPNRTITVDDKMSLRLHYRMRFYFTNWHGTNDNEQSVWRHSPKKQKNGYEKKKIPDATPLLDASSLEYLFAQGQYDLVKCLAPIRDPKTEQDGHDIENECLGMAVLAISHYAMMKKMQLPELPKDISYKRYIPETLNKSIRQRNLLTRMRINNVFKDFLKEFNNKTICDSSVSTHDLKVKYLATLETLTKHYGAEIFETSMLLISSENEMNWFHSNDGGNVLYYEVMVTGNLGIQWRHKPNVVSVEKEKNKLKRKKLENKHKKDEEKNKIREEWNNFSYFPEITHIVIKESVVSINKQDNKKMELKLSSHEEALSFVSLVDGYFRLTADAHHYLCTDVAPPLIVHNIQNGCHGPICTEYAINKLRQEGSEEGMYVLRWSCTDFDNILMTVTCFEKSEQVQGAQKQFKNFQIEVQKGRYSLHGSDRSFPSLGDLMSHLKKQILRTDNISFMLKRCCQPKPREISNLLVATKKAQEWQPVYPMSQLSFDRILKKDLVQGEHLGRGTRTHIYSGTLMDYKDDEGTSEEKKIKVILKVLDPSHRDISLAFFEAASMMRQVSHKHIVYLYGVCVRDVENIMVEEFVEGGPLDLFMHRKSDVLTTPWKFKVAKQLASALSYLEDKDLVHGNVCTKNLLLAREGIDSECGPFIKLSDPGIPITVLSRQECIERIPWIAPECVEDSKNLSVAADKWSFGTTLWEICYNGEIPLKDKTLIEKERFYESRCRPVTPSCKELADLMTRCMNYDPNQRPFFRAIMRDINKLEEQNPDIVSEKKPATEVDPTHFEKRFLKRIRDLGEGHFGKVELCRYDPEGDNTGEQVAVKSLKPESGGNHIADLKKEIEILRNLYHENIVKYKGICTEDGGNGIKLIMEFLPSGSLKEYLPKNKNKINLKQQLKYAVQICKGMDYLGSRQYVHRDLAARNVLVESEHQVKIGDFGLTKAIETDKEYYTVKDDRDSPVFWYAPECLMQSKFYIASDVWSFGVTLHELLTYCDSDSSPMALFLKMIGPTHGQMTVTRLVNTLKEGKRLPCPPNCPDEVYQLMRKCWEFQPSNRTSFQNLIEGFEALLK
UniProt O60674, whole entry: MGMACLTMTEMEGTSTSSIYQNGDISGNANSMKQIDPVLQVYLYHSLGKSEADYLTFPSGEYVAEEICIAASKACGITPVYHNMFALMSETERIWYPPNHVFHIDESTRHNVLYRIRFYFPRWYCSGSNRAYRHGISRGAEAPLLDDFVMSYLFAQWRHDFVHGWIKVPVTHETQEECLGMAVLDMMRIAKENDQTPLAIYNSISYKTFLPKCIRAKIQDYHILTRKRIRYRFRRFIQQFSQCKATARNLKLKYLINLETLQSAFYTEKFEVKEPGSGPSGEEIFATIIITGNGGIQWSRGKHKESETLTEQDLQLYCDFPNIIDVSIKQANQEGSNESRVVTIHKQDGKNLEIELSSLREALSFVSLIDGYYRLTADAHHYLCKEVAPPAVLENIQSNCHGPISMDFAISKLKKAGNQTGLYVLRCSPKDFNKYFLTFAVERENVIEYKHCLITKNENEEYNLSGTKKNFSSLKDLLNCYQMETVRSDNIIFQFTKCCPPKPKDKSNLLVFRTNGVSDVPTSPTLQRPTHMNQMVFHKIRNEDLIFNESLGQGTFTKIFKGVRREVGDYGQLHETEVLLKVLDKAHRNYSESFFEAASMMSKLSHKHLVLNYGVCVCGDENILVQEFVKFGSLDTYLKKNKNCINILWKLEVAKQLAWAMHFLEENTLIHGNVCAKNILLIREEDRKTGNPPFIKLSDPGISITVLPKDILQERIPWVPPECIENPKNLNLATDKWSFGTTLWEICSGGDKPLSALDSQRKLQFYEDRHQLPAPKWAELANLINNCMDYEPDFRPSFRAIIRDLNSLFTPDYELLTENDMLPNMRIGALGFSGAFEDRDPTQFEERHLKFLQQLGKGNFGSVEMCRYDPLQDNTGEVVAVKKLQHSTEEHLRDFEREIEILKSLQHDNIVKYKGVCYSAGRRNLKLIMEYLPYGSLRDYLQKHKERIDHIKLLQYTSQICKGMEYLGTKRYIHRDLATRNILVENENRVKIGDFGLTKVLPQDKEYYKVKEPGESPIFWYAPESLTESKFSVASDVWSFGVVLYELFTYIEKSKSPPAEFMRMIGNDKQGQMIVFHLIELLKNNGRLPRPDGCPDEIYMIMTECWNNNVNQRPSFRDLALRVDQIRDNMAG

What was measured:
Conditions in all cases: tested form: methanesulfonate
[1] = target: TYK2 (Homo sapiens, UniProt P29597); test: TYK2 kinase ADP-Glo assay (Example 6, Tofacitinib reference)
[2] = target: JAK1 (Homo sapiens, UniProt P23458); test: JAK1 kinase ADP-Glo assay (Example 6, Tofacitinib reference)
[3] = target: JAK2 (Homo sapiens, UniProt O60674); test: JAK2 kinase ADP-Glo assay (Example 6, Tofacitinib reference)

IC50 [1]: 0.18 nM
IC50 [2]: 0.12 nM
IC50 [3]: 0.3 nM
SMILES: CCc1cc(O)c(F)cc1-c1ccc2c(-c3nc4c([nH]3)CN(C(=O)N3CC[C@H](O)C3)C4)n[nH]c2c1 [Compound of formula (I), (S)-(2-(6-(2-ethyl-5-fluoro-4-hydroxyphenyl)-1H-indazol-3-yl)-4,6-dihydropyrrolo[3,4-d]imidazol-5-(1H)-yl) (3-hydroxy pyrrolidin-1-yl) ketone]
